Laboratory results taken from publication PMC9571290, “Preliminary Structure–Activity Relationship Study of the MMV Pathogen Box Compound MMV675968 (2,4-Diaminoquinazoline) Unveils Novel Inhibitors of Trypanosoma brucei brucei” (Molecules, 2022).

Test: cytotoxicity against Vero cells (resazurin viability assay)
Conditions: African green monkey
Method: The resulting pellet was resuspended and counted in a Neubauer chamber in the presence of trypan blue to exclude nonviable cells colored in blue. Once the cell load was estimated, they were either used for the next passage in a new flask or processed for the cytotoxicity assay.
Briefly, Vero cells at a density of 10^4 cells per well were plated in 100 µL of complete DMEM and incubated overnight to allow cell attachment. Plates were then controlled under an inverted fluorescence microscope (Lumascope LS520) to ensure adherence, sterility and cell integrity. Thereafter, culture medium from each well was carefully emptied, and plates were filled with 90 µL of fresh complete medium followed by the addition of 10 µL of serial 5-fold dilutions of compound solutions. […] Fluorescence was then read using a Magelan Infinite M200 fluorescence multiwell plate reader (Tecan) with excitation and emission wavelengths of 530 and 590 nm, respectively. The percentage of cell viability was calculated from readouts, and the median cytotoxic concentration (CC50) for each compound was deduced from concentration–response curves using GraphPad Prism 8.0 software as described above. Selectivity indexes were then determined for each test substance as follows: SI = CC50(Vero cells)/IC50(T. brucei brucei).

Molecule `COc1cc(NC(C)CCCN)c2ncccc2c1` (stereo not shown) [MMV000023, Primaquine, reference compound] has a CC50 at 48 h of 43.3 ± 0.4 µM.
